The values below come from PMC3745399, “An NO Donor Approach to Neuroprotective and Procognitive Estrogen Therapy Overcomes Loss of NO Synthase Function and Potentially Thrombotic Risk” (PLoS ONE, 2013).

Sequences of proteins named here, by UniProt entry; tags and fusion partners are left off.
UniProt Q92731, whole entry: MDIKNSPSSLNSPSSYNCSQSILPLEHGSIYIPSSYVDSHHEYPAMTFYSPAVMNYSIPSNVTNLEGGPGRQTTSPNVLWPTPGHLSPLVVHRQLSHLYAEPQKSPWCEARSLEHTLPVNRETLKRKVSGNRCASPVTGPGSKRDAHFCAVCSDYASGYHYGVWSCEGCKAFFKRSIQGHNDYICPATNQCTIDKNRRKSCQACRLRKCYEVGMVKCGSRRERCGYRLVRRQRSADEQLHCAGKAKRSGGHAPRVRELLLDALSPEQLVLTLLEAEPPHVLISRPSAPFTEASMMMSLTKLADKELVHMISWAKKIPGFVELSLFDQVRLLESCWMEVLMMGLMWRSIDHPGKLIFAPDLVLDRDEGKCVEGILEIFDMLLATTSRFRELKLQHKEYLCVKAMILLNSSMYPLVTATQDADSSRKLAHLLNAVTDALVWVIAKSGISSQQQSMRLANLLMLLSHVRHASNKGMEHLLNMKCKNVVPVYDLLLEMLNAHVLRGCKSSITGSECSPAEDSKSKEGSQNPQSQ

In assay [1] the test system is Ishikawa endometrial cancer cell line. Briefly: ER-mediated transcriptional activity (antiestrogen) in Ishikawa cells. The settings on record: read-out: antiestrogen potency IC50, ER-mediated transcriptional activity. It counts as cell-based.
The target in assay [2] is ERβ (Homo sapiens, UniProt Q92731). Briefly: ER binding affinity by competitive E2 displacement (ERβ). To be noted: read-out: IC50 for ERβ.
The test system of assay [3] is isolated rings of aortae. Briefly: Aortic ring relaxation.
Assay [4] concerns primary cortical neurons exposed to OGD. The assay can be described thus: Neuroprotection in oxygen glucose deprivation (OGD), MTT. To be noted: 100 nM; 2 h OGD; 24 h; no blocker; normalized to E2 10 nM (100%) and vehicle (0%).
In assay [5] the test system is C57Bl/6 mice or eNOS(−/−) mice. Briefly: Step-through passive avoidance (STPA) memory model. The settings on record: C57Bl/6 male mice; scopolamine 1 mg/kg i.p.; SERM 2 mg/kg; tested 24 h after training.

pEC50, pIC50: −log10 of the molar value.

In the case of `Oc1ccc2c(Oc3ccc(OCCN4CCCCC4)cc3)c(-c3ccc(F)cc3)sc2c1`, the pIC50 is 8.85 in assay [1] and 7.80 in assay [2]. In addition, the “maximal relaxation response, comparison” value in assay [3] (intact aortic rings) was “significantly less than those for DMA and raloxifene”. Further, the pEC50 in assay [3] (read-out: EC50 for relaxation, intact aortic rings contracted with phenylepinephrine, mean, S.D.) is 5.62. The “neuroprotection (cell survival by MTT)” value in assay [4] is reported as “ineffectiveness”. Further, the “reversal of scopolamine-induced memory deficit (STPA latency)” value in assay [5] was “without effect”.
